In the experiment the target is T1, human pancreatic lipase (hPL) (Homo sapiens, UniProt P16233).
T1 construct: made in house
T1 sequence (P16233 17-465): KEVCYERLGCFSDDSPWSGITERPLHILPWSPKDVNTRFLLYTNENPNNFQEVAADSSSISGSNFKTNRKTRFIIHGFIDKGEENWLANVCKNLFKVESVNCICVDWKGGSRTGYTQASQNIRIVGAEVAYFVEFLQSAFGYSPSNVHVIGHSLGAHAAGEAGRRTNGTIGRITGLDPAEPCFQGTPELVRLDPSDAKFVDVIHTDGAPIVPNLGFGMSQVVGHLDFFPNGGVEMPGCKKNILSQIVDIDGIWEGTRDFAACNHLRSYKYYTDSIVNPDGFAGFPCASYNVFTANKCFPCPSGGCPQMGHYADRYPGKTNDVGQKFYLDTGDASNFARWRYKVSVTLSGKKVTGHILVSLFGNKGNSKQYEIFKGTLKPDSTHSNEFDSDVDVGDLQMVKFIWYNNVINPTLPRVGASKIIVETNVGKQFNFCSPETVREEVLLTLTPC
In words: hPL inhibition assay (hPL-catalyzed DDAO-ol hydrolysis, fluorescence). It is filed as biochemical. The conditions noted are these: DDAO-ol 20 μM as substrate, 3 min pre-incubation at 37°C.

Drawing on article PMC8914261, “Discovery and Characterization of the Naturally Occurring Inhibitors Against Human Pancreatic Lipase in Ampelopsis grossedentata” (Frontiers in Nutrition, 2022), this text covers IC50 for 1 substance.

Turning to Myricitrin, the IC50 (commonly the concentration that inhibits the measured activity by half) was over 100 µM.
